## AlphaSeq binding of Ab-95 light chain variants to a spike HR2 peptide

The measurements come from Engelhart et al. 2022 (doi:10.1038/s41597-022-01779-4) through the FLAb antibody collection.

All variants were tested on one target, the spike HR2 peptide PDVDLGDISGINAS (SARS-CoV-2).

Parent: Ab-95, a human scFv built as VH, a (GGGGS)3 linker, VL. Only the CDRs of the light chain vary.
VH: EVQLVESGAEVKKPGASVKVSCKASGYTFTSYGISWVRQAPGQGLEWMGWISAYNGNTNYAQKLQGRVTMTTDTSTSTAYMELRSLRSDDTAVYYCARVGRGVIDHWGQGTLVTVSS
VL: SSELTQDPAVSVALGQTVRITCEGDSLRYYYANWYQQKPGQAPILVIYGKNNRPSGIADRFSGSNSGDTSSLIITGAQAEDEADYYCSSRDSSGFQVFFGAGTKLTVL

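In library AAYL52, one, two or three CDR residues were substituted; doubles and triples were drawn at random. The scFvs were displayed on barcoded MATa yeast, the peptide on MATalpha yeast. Binding brings cells together so that they mate, and sequencing counts the barcode pairs among the diploids. Each replicate has its own calibration line, from reference interactions of the BCL2 family. Mating was done three times.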

The parent's light chain CDRs are EGDSLRYYYAN, GKNNRPS, SSRDSSGFQVF; each variant's own CDRs replace them letter for letter.
Affinities are written as log10 Kd with Kd in nM; a lower number is a better binder.
A pair that was not seen in that replicate is written "nd"; this usually means weak binding, but a binder can also be missed.

With EGDSKSYYYAN / GKNNRPS / SSRDSSGFQVF the result was 2.49, 2.18, 1.69.
With EGDSLSYYYAN / GKNNRPS / SSRDSQKFQVF the result was 2.11, 3.00, 3.17.
With EGDSLRFYYAN / GKNNRSS / SSRDSSGFMVF the result was 4.66, 3.92, 2.89.
With EGDSLRYYYLN / GKNIAPS / SSRDSSGFQVF the result was nd, nd, nd.
With EGDSLRYYYAN / GKNNRPS / SSRCSSGFQYF the result was 4.18, nd, 4.83.
With EKDHLRYYYAM / GKNNRPS / SSRDSSGFQVF the result was nd, nd, nd.
With LGDSLRYYYAN / YKNNRPS / SSRDSSGFQVF the result was nd, 3.52, nd.
With EGDRLRYCYAN / LKNNRPS / SSRDSSGFQVF the result was nd, nd, nd.
With EGDSLRYPYAN / GSNNRPS / WSRDSSGFQVF the result was 4.39, 5.77, 3.65.
With EADSLFYYYAN / GKNNRPS / SSADSSGFQVF the result was 4.09, nd, nd.
With EGDSMRYYYAN / GKNNRPS / SSRDSSPFQVF the result was nd, 5.59, 3.06.
With EGDSYRYYYAN / GKNNRPS / SSRISSGYQVF the result was nd, nd, nd.
With EGDILCYYYAN / GKNNRPS / SSRDSQGFQVF the result was nd, 5.70, 3.53.
With EGDSLRYYYAN / GKNNRPS / SSRDDQGFDVF the result was 2.44, 2.34, 2.44.
With EGTSLRYYYAN / GTNNRPS / SSRDSSGFQVF the result was 3.02, 3.14, 2.60.
With EGDSLRYYYIN / GKNMRPS / SSRDSSTFQVF the result was 4.48, 5.15, nd.
With EGDSLRYMYAN / GKNNRPD / SSRDSSGFAVF the result was 1.75, 1.65, 1.22.
With EGWSLRYYYAN / GKNNYPS / SSRDSSGFQVN the result was nd, 3.49, nd.
With EGDSLLYYYAN / GKNNRPS / SSRDSCGFQRF the result was nd, nd, nd.
With EGDSLRYQYAN / GKLNRPT / SSRDSSGFQVF the result was 1.58, 1.54, 1.22.
With EVDSLRYYQAN / GKNNRPS / SSRDSSMFQVF the result was 3.93, 3.73, 3.41.
With EGDNLRYYYAN / GKNNNPS / SSRDVSGFQVF the result was nd, 4.58, 3.04.
With EEDSLRYWYAN / GKNNRPS / SSRDSSAFQVF the result was 3.83, 4.13, 3.91.

Second part, the sequence after the result:

3.30, 2.89, 2.57 for EGDSMRYNYAY / GKNNRPS / SSRDSSGFQVF.
4.05, nd, 4.23 for EGDSLRYYRDN / GKNNRPS / SSRDSSGFQVG.
5.77, 4.85, 4.54 for EGDYLRYYYAR / GKNNRPS / SSRDSSNFQVF.
nd, 2.19, 4.10 for EGVSLRYYYAN / GKNNRPS / SSRVRSGFQVF.
3.50, nd, nd for EGDSLRYYYAH / LKNHRPS / SSRDSSGFQVF.
nd, 3.60, nd for EGRSLRYYYAN / GKNNRWY / SSRDSSGFQVF.
nd, 5.70, nd for EGDSLRYYYAN / GKNNRPS / QSRWISGFQVF.
2.47, 2.59, 2.45 for EGDSLRYYYAN / GRNNRPS / SSRDSSGPLVF.
3.43, nd, nd for EGDSLRYYYAN / GKNNAPS / SSRDCSGFQKF.
1.48, 1.34, 0.79 for EGDSLRYYQAN / GKNNRPS / SSRDSSYFQVF.
3.35, 3.64, 3.79 for EGDRQRYYYRN / GKNNRPS / SSRDSSGFQVF.
nd, nd, nd for EGDSLRYYYAN / GKNNRCS / SPRDSCGFQVF.
2.54, 2.57, 2.39 for KGDSLRYYYAN / GKNNIPS / SSRDSSGEQVF.
2.56, 2.61, 3.86 for SGDSLRYYYAN / GKNNLPS / SSRDVSGFQVF.
3.58, 4.38, nd for EGDSLSYYNAN / KKNNRPS / SSRDSSGFQVF.
nd, 4.71, 3.38 for EGDSLRYYYSN / GKNAWPS / SSRDSSGFQVF.
nd, nd, nd for EGDKLRYYYFN / GKNNRPS / SSRDSSGFQSF.
3.54, 3.77, 3.17 for EGDPLRYYYAN / GKNWRPS / SSRDCSGFQVF.
3.11, nd, 2.94 for EGDLLRYYQAN / GKNNRLS / SSRDSSGFQVF.
4.19, 3.85, 3.16 for EGDSLRYYYAN / GKNHRYS / SSRDSSGFQVF.
1.48, 1.46, 1.09 for EGDSVRYQNAN / GKNNRPS / SSRDSSGFQVF.
nd, nd, nd for EGDSLRYYYAN / GKFNRPS / SSVDSSGHQVF.
nd, nd, nd for EGDSLRYYYAE / GKNNRPS / SSFDWSGFQVF.

The closing 6 entries, repeated:

| CDR-L1 | CDR-L2 | CDR-L3 | replicates, log10 nM |
|---|---|---|---|
| EGDPLRYYYAN | GKNWRPS | SSRDCSGFQVF | 3.54, 3.77, 3.17 |
| EGDLLRYYQAN | GKNNRLS | SSRDSSGFQVF | 3.11, nd, 2.94 |
| EGDSLRYYYAN | GKNHRYS | SSRDSSGFQVF | 4.19, 3.85, 3.16 |
| EGDSVRYQNAN | GKNNRPS | SSRDSSGFQVF | 1.48, 1.46, 1.09 |
| EGDSLRYYYAN | GKFNRPS | SSVDSSGHQVF | nd, nd, nd |
| EGDSLRYYYAE | GKNNRPS | SSFDWSGFQVF | nd, nd, nd |

Empty control strains, which show no peptide, gave a signal in 28% of pairings with library AAYL52; the median was 3.91 and 95% of these signals were weaker than 2.90. No background was subtracted.